Apparent affinities of Ab-14 variants for a coronavirus HR2 peptide

Antigen: PDVDLGDISGINAS, a 14-residue peptide of the SARS-CoV-2 spike HR2 region.

Each scFv is VH, a (GGGGS)3 linker, VL, as in the parent Ab-14, and differs from it in the CDRs of the heavy chain only.
VH: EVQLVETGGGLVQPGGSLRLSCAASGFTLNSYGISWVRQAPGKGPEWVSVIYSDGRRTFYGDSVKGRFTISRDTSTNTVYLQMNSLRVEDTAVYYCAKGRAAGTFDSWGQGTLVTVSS
VL: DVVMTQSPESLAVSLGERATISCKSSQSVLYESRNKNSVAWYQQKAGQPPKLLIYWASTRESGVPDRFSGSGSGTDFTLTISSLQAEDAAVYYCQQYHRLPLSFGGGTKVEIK

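The starting antibody came from a phage panning campaign against this peptide. These sequences belong to a second round, designed from the earlier measurements on random variants of the parent. Several design methods are mixed in this list. AlphaSeq pools MATa yeast showing the antibodies with MATalpha yeast showing the peptide. Pairs that bind mate more often; barcode pairs of the diploids are counted by sequencing. Each replicate has its own calibration line, from reference interactions of the BCL2 family. There are six technical replicates.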

Changes read parent residue, position, new residue, counted from the first residue of the VH shown. This list holds designs with at most six substitutions. Kd is apparent (estimated from mating counts) and averaged on the log scale over replicates with a signal. Smaller is tighter. An entry "nd" has no value in the source: the pair was not observed among the diploids in any replicate. This suggests poor binding but is not conclusive. The parent sequence was in this pool as ten entries: three were never detected, three once, and four in most replicates, with averages from 2.2 nM to 240 nM. The range of this assay differs from that of the first round, and the authors advise against merging the two. The authors' rule: three or more of the six replicates give a measured affinity, fewer mean a poor binder. Empty control strains, which show no peptide, gave a signal in 1% of pairings with all heavy chain designs; the median was 120 nM and 95% of these signals were weaker than 7.0 nM. No background was subtracted.

* T28S+G61Q+S63N+R100N: 1.5 nM (6 of 6 replicates)
* F59H+R100Y: 17 nM (4 of 6 replicates)
* G26L+Y60I+G61S+V64F+G103W+D106K: 360 nM (1 of 6 replicates)
* T28S+S31E+D106I+S107F: 810 pM (2 of 6 replicates)
* L29N+A101I+A102I: nd (0 of 6 replicates)
* L29I+S107V: 160 nM (3 of 6 replicates)
* S31D+G61K+S107T: 2.7 nM (6 of 6 replicates)
* A102S+G103A: nd (0 of 6 replicates)
* G61I+V64F: nd (0 of 6 replicates)
* N30R+V64F+A101N: 220 nM (3 of 6 replicates)
* T28E+G61A+R100K+A101Q: 1.0 nM (6 of 6 replicates)
* S31E+R56W+G61H+D106T: 470 nM (1 of 6 replicates)
* S31D+G61Q+S63K+V64Y: nd (0 of 6 replicates)
* T28E+S31E+S63N+A101T: 7.3 nM (6 of 6 replicates)
* S53A+R56I+F59M+G61H+S63R+S107V: 16 nM (6 of 6 replicates)
* S31Q+R56K+G61S+T104F: nd (0 of 6 replicates)
* G103V+S107Q: nd (0 of 6 replicates)
* R56M+R100E+D106E: nd (0 of 6 replicates)
* T28S+S31D+A101T+S107K: 2.2 nM (6 of 6 replicates)
* S31E+S53A+A101G+S107V: 2.6 nM (6 of 6 replicates)
* F27Y+S31E+G61K+A101I+S107Q: 59 nM (5 of 6 replicates)
* S31E+G61K+A101F: 4.1 nM (6 of 6 replicates)
* R56L+G61E+A101E: 13 nM (6 of 6 replicates)
* T28S+F59Y: 7.4 nM (6 of 6 replicates)
* T28Q+N30E+G61A+S63Q+A101T: 8.0 nM (4 of 6 replicates)
* T28E+G61I+R100T+A101V: 860 pM (6 of 6 replicates)
* G61S+R100Q+A101L+T104S: 20 nM (1 of 6 replicates)
* F59M+G99S+R100E: nd (0 of 6 replicates)
* I34G+A102R: nd (0 of 6 replicates)
* S53A+R100V+D106H: 680 nM (2 of 6 replicates)
* G61S+R100E+S107R: 12 nM (6 of 6 replicates)
* T28D+G61Q+R100Q+S107A: 3.7 nM (6 of 6 replicates)
* S31E+F59Q: 6.3 nM (6 of 6 replicates)
* F59A+S63K+R100E: 6.8 nM (6 of 6 replicates)
* F27I+T28M+G61S+D62G+G103A: nd (0 of 6 replicates)
* T28P+S31E+S53A+R100E: 370 pM (6 of 6 replicates)
* G61S+R100S+A102V: 410 nM (2 of 6 replicates)
* N30E+S53A+S63I+D106E: nd (0 of 6 replicates)
* G61S+R100E+S107N: 21 nM (5 of 6 replicates)
* T28D+G61K+S63Q+A101T: 4.3 nM (6 of 6 replicates)

Excerpt, the first 3 entries:

changes,apparent Kd,replicates with signal
T28S+G61Q+S63N+R100N,1.5 nM,6 of 6
F59H+R100Y,17 nM,4 of 6
G26L+Y60I+G61S+V64F+G103W+D106K,360 nM,1 of 6

Source: Li et al. 2023 (doi:10.1038/s41467-023-39022-2), MIT Lincoln Laboratory and A-Alpha Bio; data file from the FLAb repository.